{"source": "paper PMC5349910", "about": "“Discovery of BPR1K871, a quinazoline based, multi-kinase inhibitor for the treatment of AML and solid tumors: Rational design, synthesis, in vitro and in vivo evaluation” (Oncotarget, 2016)", "tested_on": "HCC827 cells", "experiment": "Anti-proliferative activity, HCC827", "type": "cell-based", "details": "Homo sapiens, HCC827, read-out: HCC827 EC50"}
{"smiles": "CNC(=O)c1cc(Oc2ccc(NC(=O)Nc3ccc(Cl)c(C(F)(F)F)c3)cc2)ccn1", "note": "[Sorafenib]", "values": [{"measurement": "EC50", "value": 6.27, "unit": "µM"}]}
